Results taken from PMC4358367, “Structural basis of diverse membrane target recognitions by ankyrins” (eLife, 2014).

Chains of the proteins cited; added tags and fusions are not shown. Residues count along the entry.
UniProt Q01484, 28-873: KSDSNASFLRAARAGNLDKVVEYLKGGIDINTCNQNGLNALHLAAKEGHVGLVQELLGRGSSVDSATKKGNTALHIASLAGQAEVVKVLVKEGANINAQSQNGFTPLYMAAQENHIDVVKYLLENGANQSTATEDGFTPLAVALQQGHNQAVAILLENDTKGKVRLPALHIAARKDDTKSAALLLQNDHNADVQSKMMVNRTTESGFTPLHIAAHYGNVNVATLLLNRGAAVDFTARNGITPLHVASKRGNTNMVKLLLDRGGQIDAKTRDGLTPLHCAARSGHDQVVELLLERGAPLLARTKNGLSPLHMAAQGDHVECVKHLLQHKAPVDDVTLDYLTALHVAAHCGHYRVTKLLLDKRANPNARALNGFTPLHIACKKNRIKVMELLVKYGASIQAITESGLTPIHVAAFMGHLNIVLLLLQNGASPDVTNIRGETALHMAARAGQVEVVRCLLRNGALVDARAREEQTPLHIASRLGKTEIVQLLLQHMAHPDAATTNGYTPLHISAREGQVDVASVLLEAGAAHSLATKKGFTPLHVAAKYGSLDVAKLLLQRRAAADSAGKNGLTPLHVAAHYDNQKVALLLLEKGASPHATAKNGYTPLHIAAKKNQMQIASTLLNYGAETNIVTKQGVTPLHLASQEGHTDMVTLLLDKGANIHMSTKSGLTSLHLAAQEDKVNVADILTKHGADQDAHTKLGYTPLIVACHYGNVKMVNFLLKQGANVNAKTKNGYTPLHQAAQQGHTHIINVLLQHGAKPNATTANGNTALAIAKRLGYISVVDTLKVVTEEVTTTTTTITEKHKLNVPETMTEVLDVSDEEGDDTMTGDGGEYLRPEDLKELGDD

Target: T1, AnkB_repeats WT (Homo sapiens, UniProt Q01484)
T1 construct: thioredoxin-His6 (N); made in house; host or cells: Escherichia coli BL21 (DE3)
Test: Fluorescence polarization binding to AnkB_repeats WT
Details: deduced from ANK repeats WT and site mutants
Text: The coding sequences of AnkB_repeats (residues 28–873) were PCR amplified using the full-length human 220 kDa AnkB as the template. The coding sequences of the AnkR constructs, including AnkR_repeats (residues 42–853), and the full length AnkR C-terminal domain (residues 1529–1907), were PCR amplified from a mouse muscle cDNA library. The coding sequence of AnkG_repeats (residues 38–855) were PCR amplified using the full-length rat 190 kDa AnkG as the template. The fusion construct of AnkR_AS and AnkB_repeats was made by standard two-step PCR with a coding sequence of thrombin recognition residues ‘GSLVPRGS’ as the linker. This construct was used to crystallize and determine the complex structure. The same strategy was used in making other fusion constructs, including the Nav1.2_ABD-C/AnkB_repeats_R1–9 fusion construct containing residues 1103–1129 from mouse Nav1.2 and human AnkB residues 28–318 followed by a capping sequence corresponding to the αB of R24 (residues 814–822) and the AnkR_AS/AnkG_repeats fusion construct. For truncation mutations of ANK repeats constructs, the same capping sequence was added to the appropriate region of the C-terminus of each construct for protein stabilization. […]
Fluorescence assays were performed on a PerkinElmer LS-55 fiuorimeter equipped with an automated polarizer at 25°C. […]

ANK repeat sites used for binding: mainly binds to sites 1 and 2
Compound: CC[C@H](C)[C@H](NC(=O)[C@H](Cc1ccc(O)cc1)NC(=O)[C@@H]1CCCN1C(=O)[C@H](CCCNC(=N)N)NC(=O)[C@@H](NC(=O)[C@H](CCCCN)NC(=O)[C@H](C)NC(=S)Nc1ccc2c(c1)C(=O)OC21c2ccc(O)cc2Oc2cc(O)ccc21)C(C)C)C(=O)N[C@@H](C)C(=O)N[C@@H](CCC(=O)O)C(=O)NCC(=O)N[C@@H](CCC(=O)O)C(=O)N[C@@H](CO)C(=O)N[C@@H](CC(=O)O)C(=O)N[C@H](C(=O)N[C@@H](CC(=O)O)C(=O)N[C@@H](CO)C(=O)N[C@@H](CC(=O)O)C(=O)N[C@@H](CC(C)C)C(=O)N[C@@H](CS)C(=O)N[C@H](C(=O)O)[C@@H](C)O)[C@@H](C)O [FITC-KCNQ2 peptide]
